Reference: patent US10912838B2, “Carrier for use in delivering drug, conjugate, composition comprising same, and method for administrating same” (THE UNIVERSITY OF TOKYO, priority 2013, dated 2021)

Settings: 3 mg/mL, 200 μL i.v. over 2 hours, 20% glucose i.p. after 5 minutes, 1 hour after completion

Glc(6)-PEG-polyaspartic acid
accumulation in the brain, of the total dose per g of the brain: 0.4%
